Source: patent US20090192095A1 (priority 2008, published 2009)

Test system: opioid receptors
Test: Assessment of reduction in intrinsic opioid binding activity by structural analogy
Details: predicted by analogy with oxymorphone valine carbamate, structural overlay

## CO[C@]12CC[C@@]3(C[C@@H]1[C@@](C)(O)C(C)(C)C)[C@H]1Cc4ccc(OC(=O)NC(C(=O)O)C(C)C)c5c4[C@@]3(CCN1CC1CC1)[C@H]2O5 (stereo partly shown)
  opioid binding activity in comparison with the parent drug: much less opioid binding activity
